In patent publication US20240376099A1, “COMPOUNDS AND COMPOSITIONS AS INHIBITORS OF ENDOSOMAL TOLL-LIKE RECEPTORS” (Novartis AG, priority 2016, published 2024) one finds IC50 data, which are given here for 1 compound.

Amino acid sequences for entries named in this document (tags omitted). Residues count along the entry.
UniProt Q9NR97, 27-1041 limits assumed: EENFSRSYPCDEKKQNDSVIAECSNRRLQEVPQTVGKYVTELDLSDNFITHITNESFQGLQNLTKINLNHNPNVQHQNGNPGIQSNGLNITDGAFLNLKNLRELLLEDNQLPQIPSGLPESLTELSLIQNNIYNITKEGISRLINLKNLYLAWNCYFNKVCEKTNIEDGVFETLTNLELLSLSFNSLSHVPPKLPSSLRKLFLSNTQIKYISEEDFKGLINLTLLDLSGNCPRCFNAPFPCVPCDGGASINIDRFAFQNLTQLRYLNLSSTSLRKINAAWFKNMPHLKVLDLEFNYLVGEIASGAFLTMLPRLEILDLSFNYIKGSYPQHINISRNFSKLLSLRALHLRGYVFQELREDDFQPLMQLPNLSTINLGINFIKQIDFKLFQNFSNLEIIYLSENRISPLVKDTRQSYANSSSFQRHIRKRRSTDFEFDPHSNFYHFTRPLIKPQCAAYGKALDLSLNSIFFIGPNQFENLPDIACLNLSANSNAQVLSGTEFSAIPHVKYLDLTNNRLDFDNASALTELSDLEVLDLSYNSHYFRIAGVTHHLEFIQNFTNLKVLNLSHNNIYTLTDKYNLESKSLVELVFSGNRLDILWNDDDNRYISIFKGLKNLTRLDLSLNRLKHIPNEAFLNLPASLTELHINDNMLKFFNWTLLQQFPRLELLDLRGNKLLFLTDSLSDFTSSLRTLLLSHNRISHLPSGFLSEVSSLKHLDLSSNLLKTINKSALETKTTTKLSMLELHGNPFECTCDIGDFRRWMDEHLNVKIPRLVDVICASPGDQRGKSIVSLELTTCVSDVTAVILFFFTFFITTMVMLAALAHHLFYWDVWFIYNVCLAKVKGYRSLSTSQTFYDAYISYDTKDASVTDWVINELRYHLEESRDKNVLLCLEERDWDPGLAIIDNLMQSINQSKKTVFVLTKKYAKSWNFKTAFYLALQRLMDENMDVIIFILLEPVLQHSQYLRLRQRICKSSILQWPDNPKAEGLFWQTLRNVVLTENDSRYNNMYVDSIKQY
UniProt Q9NR96, 26-1032 limits assumed: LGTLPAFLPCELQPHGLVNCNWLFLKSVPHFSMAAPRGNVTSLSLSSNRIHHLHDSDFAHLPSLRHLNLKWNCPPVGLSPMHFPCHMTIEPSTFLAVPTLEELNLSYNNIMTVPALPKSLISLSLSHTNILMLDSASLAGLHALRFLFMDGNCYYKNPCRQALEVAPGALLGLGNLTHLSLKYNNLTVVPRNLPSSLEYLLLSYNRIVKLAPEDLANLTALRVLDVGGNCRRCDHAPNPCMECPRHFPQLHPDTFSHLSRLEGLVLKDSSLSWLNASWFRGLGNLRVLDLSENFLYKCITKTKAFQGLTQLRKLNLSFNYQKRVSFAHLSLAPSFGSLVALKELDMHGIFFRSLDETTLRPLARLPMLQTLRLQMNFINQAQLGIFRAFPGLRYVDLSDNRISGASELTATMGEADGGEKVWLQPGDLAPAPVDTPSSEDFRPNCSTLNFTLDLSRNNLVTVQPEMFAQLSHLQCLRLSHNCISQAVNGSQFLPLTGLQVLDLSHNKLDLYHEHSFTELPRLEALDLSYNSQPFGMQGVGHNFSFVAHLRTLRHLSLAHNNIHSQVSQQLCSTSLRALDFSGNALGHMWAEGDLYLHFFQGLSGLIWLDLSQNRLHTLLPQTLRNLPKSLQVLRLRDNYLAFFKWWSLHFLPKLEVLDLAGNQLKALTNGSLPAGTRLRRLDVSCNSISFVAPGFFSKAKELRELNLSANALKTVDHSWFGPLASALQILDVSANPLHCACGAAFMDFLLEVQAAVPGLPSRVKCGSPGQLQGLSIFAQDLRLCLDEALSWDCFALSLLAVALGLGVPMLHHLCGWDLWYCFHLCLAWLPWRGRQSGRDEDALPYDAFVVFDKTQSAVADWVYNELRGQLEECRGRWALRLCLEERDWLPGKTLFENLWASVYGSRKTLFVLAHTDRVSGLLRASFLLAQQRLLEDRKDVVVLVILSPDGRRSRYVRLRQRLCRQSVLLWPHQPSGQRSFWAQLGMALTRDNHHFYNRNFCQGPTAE

pIC50: −log10 of the molar value.

One test addresses TLR8 (Homo sapiens, UniProt Q9NR97). Nature of the test: huPBMC TLR8 Antagonist IL-6 TR-FRET Assay. To be noted: read-out: huPBMC TLR8 Antagonist IL-6 TR-FRET Assay IC50; human PBMCs stimulated with ssRNA40 1 μg/ml (DOTAP), 14-16 hrs; IL-6 TR-FRET read-out. As for the experimental part: (§1) Compounds were generally serially diluted (1/3) in DMSO and plated on sterile 384 well tissue culture plates and stored until ready for use. Each ten-point dilution was typically plated in triplicate in parallel rows.
(§2) Fresh blood was collected from normal human donors underwritten informed consent in heparinized syringes on the morning of the assay. The blood was diluted in RPMI-1640 medium and the white blood cells were separated from red blood cells by centrifugation (800 g 15′ 0 acceleration, 0 brake) on a Ficoll cushion. Peripheral blood mononuclear cells (PBMCs) were separated from platelets by a series of low-speed centrifugations (1000RPM 10′) in PBS+5% HI—FBS and 1 mM EDTA. Purified PBMCs were re-suspended in assay medium (RPMI-1640 w Glutamax (Invitrogen) supplemented with 5% HI—FBS, 10 mM HEPES, 50 uM β-mercaptoethanol, and 100 mG/L penicillin/streptomycin cocktail). Viable PBMCs were counted on a hemacytometer and kept on ice until ready for plating.
(§3) A 4× concentration (4 ug/ml or 40 ug/ml for TLR8 or TLR7 assays, respectively) of the TLR7/8 agonist ssRNA40 (IDT) was complexed with 10% DOTAP (Roche) in assay medium for 30 min prior to addition to the PBMC suspension (5 million cells/ml). After addition, the final concentration of ssRNA40 in the TLR7/8 stimulated PBMC suspension was 1 μg/ml for TLR8 assay, and 10 μg/mL for the TLR7 assay. […]
On the technique in general: TR-FRET usually uses a lanthanide donor and a delayed reading to cut background.

Another test deals with TLR9 (Homo sapiens, UniProt Q9NR96). Description: huPBMC TLR9 Antagonist IFNα Assay. To be noted: read-out: huPBMC TLR9 Antagonist IFNα Assay IC50; human PBMCs stimulated with ODN2216 0.3 μM, 14-16 hrs; IFNα2b AlphaLISA read-out. As for the experimental part: as §1, §2, §3

As a reminder, the pIC50 is the negative decadic logarithm of the IC50, by convention in mol/L. For the compound `COC(C)(C)CNC12CCC(Cn3nc(C)c4c3CCN(c3cc(C)nc5c3cnn5C)C4)(CC1)CC2`, the pIC50 at TLR8 is 7.15; at TLR9 it was 5.58.
